The test deals with full-length human ABHD2 (ABHD2^FL) (Homo sapiens, UniProt P08910). Put plainly: ABHD2^FL enzymatic activity assay with 7-HCA substrate. The format is biochemical. To be noted: read-out: IC50 measured in ABHD2^FL in the 7-HCA Assay; Supplementary Table S2.

Sequences of proteins named here, by UniProt entry; tags and fusion partners are left off.
UniProt P08910, whole entry: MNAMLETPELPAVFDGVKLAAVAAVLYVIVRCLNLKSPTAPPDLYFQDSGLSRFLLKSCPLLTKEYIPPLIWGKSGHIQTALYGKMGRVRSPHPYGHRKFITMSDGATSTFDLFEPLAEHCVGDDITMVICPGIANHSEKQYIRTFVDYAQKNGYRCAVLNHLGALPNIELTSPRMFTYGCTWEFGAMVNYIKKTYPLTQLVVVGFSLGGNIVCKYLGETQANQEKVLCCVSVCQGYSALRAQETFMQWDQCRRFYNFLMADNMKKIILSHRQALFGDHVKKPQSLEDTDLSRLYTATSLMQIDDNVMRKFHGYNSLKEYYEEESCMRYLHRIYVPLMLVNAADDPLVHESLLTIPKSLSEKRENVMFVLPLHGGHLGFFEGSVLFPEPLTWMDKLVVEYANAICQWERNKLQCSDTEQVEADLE

On to `FC(F)(F)Oc1ccc(Oc2ccnc(N3CCC(NC(=S)Nc4cccnc4)CC3)c2Cl)c(Cl)c1`, for which the IC50 is more than 20 µM.

A word on the IC50: it is the concentration that inhibits the measured activity by half.
